ChEMBL document CHEMBL2396551, “Design and synthesis of 6,7-dimethoxyquinazoline analogs as multi-targeted ligands for α1- and AII-receptors antagonism” (Bioorg Med Chem Lett, 2013)

Protein sequences, listed by entry. Tags and fused reporters are not part of them. Lines headed by an entry give the natural chain unless they say otherwise; changes in a name come on top.
UniProt P15823: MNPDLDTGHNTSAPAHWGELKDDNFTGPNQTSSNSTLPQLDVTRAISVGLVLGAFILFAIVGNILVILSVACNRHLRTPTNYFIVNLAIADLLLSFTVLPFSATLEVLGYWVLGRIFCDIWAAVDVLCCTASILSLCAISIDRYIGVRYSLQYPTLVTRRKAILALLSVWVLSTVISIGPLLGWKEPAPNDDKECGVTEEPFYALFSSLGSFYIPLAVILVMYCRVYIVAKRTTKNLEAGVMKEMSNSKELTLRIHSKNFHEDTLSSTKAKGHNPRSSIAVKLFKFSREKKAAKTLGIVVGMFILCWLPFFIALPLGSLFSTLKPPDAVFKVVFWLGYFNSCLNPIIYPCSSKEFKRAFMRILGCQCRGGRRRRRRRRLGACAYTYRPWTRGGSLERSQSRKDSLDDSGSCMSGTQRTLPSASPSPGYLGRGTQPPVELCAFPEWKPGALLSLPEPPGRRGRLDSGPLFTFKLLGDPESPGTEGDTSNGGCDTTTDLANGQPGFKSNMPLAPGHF
UniProt P23944: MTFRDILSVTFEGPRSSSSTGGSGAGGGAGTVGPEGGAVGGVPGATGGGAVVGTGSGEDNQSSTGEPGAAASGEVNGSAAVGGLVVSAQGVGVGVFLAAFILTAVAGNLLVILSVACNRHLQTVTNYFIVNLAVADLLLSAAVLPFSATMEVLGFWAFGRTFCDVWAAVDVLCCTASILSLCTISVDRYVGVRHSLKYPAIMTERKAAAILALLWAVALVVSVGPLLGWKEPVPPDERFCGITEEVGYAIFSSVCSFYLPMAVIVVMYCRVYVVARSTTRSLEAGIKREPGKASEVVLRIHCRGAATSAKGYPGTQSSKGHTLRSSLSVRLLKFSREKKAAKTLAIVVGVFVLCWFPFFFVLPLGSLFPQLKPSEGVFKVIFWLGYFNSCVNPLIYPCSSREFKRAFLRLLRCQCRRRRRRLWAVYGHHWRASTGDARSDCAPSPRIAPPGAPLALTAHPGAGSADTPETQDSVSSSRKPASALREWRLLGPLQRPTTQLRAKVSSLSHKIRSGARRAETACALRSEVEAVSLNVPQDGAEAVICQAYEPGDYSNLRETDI
UniProt P43140: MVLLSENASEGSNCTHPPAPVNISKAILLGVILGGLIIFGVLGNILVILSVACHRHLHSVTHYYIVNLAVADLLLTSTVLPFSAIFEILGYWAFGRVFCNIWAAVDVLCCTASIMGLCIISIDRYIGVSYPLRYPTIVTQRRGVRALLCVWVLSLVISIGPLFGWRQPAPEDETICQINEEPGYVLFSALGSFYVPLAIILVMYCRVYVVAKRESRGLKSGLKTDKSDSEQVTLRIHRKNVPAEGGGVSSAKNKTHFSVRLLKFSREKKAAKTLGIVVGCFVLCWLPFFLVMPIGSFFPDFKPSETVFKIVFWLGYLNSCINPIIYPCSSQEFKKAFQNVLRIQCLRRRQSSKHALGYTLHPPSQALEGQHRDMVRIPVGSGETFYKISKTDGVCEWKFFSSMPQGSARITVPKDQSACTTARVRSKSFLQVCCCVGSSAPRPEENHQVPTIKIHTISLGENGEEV

Molecular target: Adrenergic receptor alpha-1 (Rattus norvegicus, UniProt P15823+P23944+P43140)
Assay: Antagonist activity at alpha1-adrenergic receptor in Wistar rat endothelium denuded thoracic aorta assessed as inhibition of phenylephrine-induced contraction preincubated for 30 mins prior to phenylephrine-challenge
Type: tissue-based

Question: How did the pA2 turn out when `COc1cc2nc(N3CCN(C(=O)C4CCCO4)CC3)nc(N)c2cc1OC` (stereo unspecified) [TERAZOSIN] was run?
Answer: Its pA2 is 8.65.
